Data reported in patent US20050255042A1, “On-demand cleavable linkers for radioconjugates for cancer imaging and therapy” (The Regents of the University of California Office of …, priority 2003, published 2005).

Tests used:
[1] = Cleavage of soluble peptides in human plasma alone, fluorescence plate reader; assay type: in vitro ADME; conditions: 90 μM peptide, 10 μl plasma in PBS pH 7.2, without TNKase®
Method: The peptides in Table 3 were re-synthesized in soluble form with nitrotyrosine (Y(NO2) at the N-terminus and Abz at the ε-amino group of the lysine residue (k(Abz)) at the C-terminus. They were then incubated with human plasma alone or plasma plus TNKase® in a 96-well plate and the cleavage reaction was monitored over a period of time with a fluorescent plate reader. Each well contained 90 μM of peptides, 10 μl of plasma in PBS, ph 7.2, with or without 1 μg of TNKase®, in a final volume of 100 μl. Cleavage was measured as fluorescence intensity at different time intervals in the fluorescence plate reader at 360/440 nm excitation and emission range.

[2] = Stability of peptides in supernatants from tumor cell line cultures; conditions: supernatants of several tumor cell lines in log phase

PFGRSA
stability / cleavage in human plasma [1]: highly susceptible to cleavage
stability / cleavage in tumor cell culture supernatants [2]: highly susceptible to cleavage
